Test [1] has as its system Class IIa HDACs. Put plainly: class-distinguishing fluorogenic substrates whole-cell assay, class IIa, HT-29. Type of test: cell-based. To be noted: HT-29 whole cell assay, control.
For test [2], the system named is Class I/IIb HDACs. Put plainly: class-distinguishing fluorogenic substrates whole-cell assay, class I/IIb, HT-29. Type of test: cell-based. As to conditions: HT-29 whole cell assay, control.

Molecules are shown by their SMILES.

Consider one compound from PMC8919062 (European journal of medicinal chemistry, 2021).

In the case of `O=C(CCCCCCC(=O)Nc1ccccc1)NO` [SAHA], the “activity against class-IIa HDACs” value in test [1] is recorded as “not active”. Further, the “activity against class-I/IIb HDACs” value in test [2] is “modest activity”.
